Laboratory results: PubChem BioAssay AID603 (National Center for Advancing Translational Sciences (NCATS), 2007)
The list shows a part of the results, in another mix than the full data. The source made the active and inactive calls. Calls come from the whole dose curve; as a rule, active = well fitted curve in the direction sought with a large enough effect; inconclusive = small, poorly fitted or top-dose-only effect; inactive = flat fitted curve, though single readings scatter.

test system: DNA polymerase III holoenzyme (E. coli); experiment: qHTS Assay for Inhibitors of DNA Polymerase III Holoenzyme System; settings: reconstituted DNA polymerase III holoenzyme replication, biochemical; at 57.1 µM (top of the series)
Description: NIH Molecular Libraries Screening Centers Network [MLSCN]
NIH Chemical Genomics Center [NCGC]
Assay Provider: Charles McHenry, University of Colorado
E. coli DNA polymerase III holoenzyme complex was assayed for DNA production by fluorescent detection of the double-stranded DNA product with PicoGreen dye. The holoenzyme complex was reconstituted from the following purified protein components: DNA Polymerase III, beta subunit processivity factor, SSB single-stranded DNA binding protein, and Primase. Single-stranded, circular M13Gori was used as a substrate with dNTPs and NTPs also supplied to the substrate reagent. Compounds from the NCGC collection were incubated with the holoenzyme mixture for 15 min at room temperature to allow binding to occur, and then the reaction was started by the addition of substrate. […] Reaction progress was measured in a ViewLux CCD imager in fluorescence intensity mode by using 480 nm excitation and 540 nm emission filter set. […]
Three uL of holoenzyme mixture were dispensed to 1536-well Greiner black solid bottom plates. […] After room temperature incubation for 35 minutes, 1 uL of PicoGreen solution was added to each well and the plates were read 480 nm excitation and 540 nm emission using ViewLux (Perkin-Elmer) High-throughput CCD imager and fluorescence protocol settings. […]
% is set by controls: 0 for no effect and ±100 for the full control effect.

SMILES	activity change, negative = inhibition
O=[N+]([O-])C(Cl)(Cl)Cl	inactive: 4.1%
CN(CCCl)CCCl	inactive: -0.6%
